Assay results published in PubChem BioAssay AID1347081 (National Center for Advancing Translational Sciences (NCATS), 2019).
Listed are the inconclusive results; actives and inactives stand elsewhere. The call rests on the fitted dose curve.

Test: qHTS for Inhibitors of the Functional Ribonucleoprotein Complex (vRNP) of Lassa (LASV) Arenavirus: Viability assay - alamar blue signal for LASV Confirmatory Screen
Details: LASV vRNP counter-screen cells

For `Cc1cc([N+](=O)[O-])cc([N+](=O)[O-])c1O`, the Potency was inconclusive: 88.5 µM.
